SMILES strings stand for the structures.

A short description of this series: Lipophilicity determination by RP-HPLC (log of capacity factor k). Format: physicochemical.

`O=C(/C=C/c1ccccc1)Nc1ccccc1F` [Compound 4] showed a log k of 0.1330.

The values above are taken from article PMC9698057, “Insights into Antimalarial Activity of N-Phenyl-Substituted Cinnamanilides” (Molecules, 2022).
